One may read the Kd as a measure of binding affinity in units of concentration. Read a low Kd as higher affinity.

This note sets out measurements from patent US20140161790A1.

The assay has as its target human FcRn (heterodimer of alpha chain and beta2-microglobulin) (human) (UniProt P55899). Briefly: Biacore (SPR), column 'hFcRn Affinity (uM)'; antibody captured on anti-hFab CM5 chip, hFcRn as analyte, PBS pH 6.0, 1:1 Langmuir fit.

“adalimumab native IgG1 (XENP6755) (antibody)” returned a dissociation constant (Kd) of 1600 nM. This lies in the single-digit micromolar range.
